# Experimental data as given in publication PMC9059126, “Structure-Based Design of a Novel Class of Autotaxin Inhibitors Based on Endogenous Allosteric Modulators” (Journal of Medicinal Chemistry, 2022).
# Target: ATX (Rattus norvegicus, UniProt Q64610)
# Assay: Choline oxidase-coupled choline-release assay of LPC hydrolysis by ATX
# Conditions: 20 nM ATX
compound,measurement,value
"C[C@H](CCC(=O)O)[C@H]1CC[C@H]2[C@@H]3[C@@H](O)C[C@@H]4C[C@H](O)CC[C@]4(C)[C@H]3CC[C@]12C [Compound 9, ursodeoxycholic acid, reference compound]",Residual Activity (%),61%
